Target: VHL (Homo sapiens (Human), UniProt P40337)
Test: VHL fluorescence polarization (FP) competition assay
Format: binding

Cc1ncsc1-c1ccc(CNC(=O)[C@@H]2C[C@@H](O)CN2C(=O)[C@@H](NC(=O)Cc2ccccc2)C(C)(C)C)cc1 [Example 21, (2S,4R)-1-((S)-3,3-dimethyl-2-(2-phenylacetamido)butanoyl)-4-hydroxy-N-(4-(4-methylthiazol-5-yl)benzyl)pyrrolidine-2-carboxamide]
IC50 (0.25% in DMSO): 5690 nM | IC50 (1% in DMSO): 392 nM | IC50 (10% in DMSO): 1490 nM

— US10730870B2, “Compounds and methods for the enhanced degradation of targeted proteins” (Arvinas, Inc., priority 2015, dated 2020)
